Source: PubChem BioAssay
Hits are enriched below; roughly 16% of the tested compounds scored in any of these assays.
miR-21 reporter: raises the signal of a miR-21 reporter | Potency, µM (highest dose often 38.3 µM) | HeLa miR-21 FLuc reporter, luciferase, 48 h | 340,000 tested, under 10 active; active = well fitted rising curve with a large enough effect; inconclusive = small, poorly fitted or top-dose-only effect; inactive = no such curve, though single readings can be large or run the other way;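 further: miR-21 action dims this reporter so a rising signal means less miR-21 action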
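HeLa cells stably expressing CMV-driven firefly luciferase with a downstream miR-21 binding sequence, endogenously expressing miR-21, were treated with titrations (up to about 40uM final) for 48 hours at 37 degree Celsius. Luciferase luminescence was read after lysis.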
uPA surface inh: blocks generation of uPA at the cell surface; cell surface uPA generation assay, qHTS; Potency, µM (series often up to 38.3 µM), usual class: inhibitors; 330,000 compounds, 0.31% hits; AID 540303; active = well fitted inhibition curve with a large enough effect; inconclusive = small, poorly fitted or top-dose-only effect; inactive = no such curve, though single readings can be large or run the other way; tested in mouse RAW 264.7 cells; note: nearly all actives have a fitted effect of over 55% in size
DT40 TDP1 CPT: DT40-hTDP1 cell growth loss with CPT | 420,000 compounds, 12% hits | AID 686979 | Potency, µM (highest dose often 46.2 µM), usual class: inhibitors | chicken DT40 Tdp1-/-;hTDP1 cells + 20 nM CPT, ATP luminescence, 48 h; note: nearly all actives have a fitted effect of over 55% in size
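Cell growth measured by CellTiter-Glo luminescence after a minimum 48 h, 37 C compound exposure with 20 nM CPT in Tdp1-knockout DT40 cells stably expressing hTDP1, seeded 400/well; qHTS titration format.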
TDP1 inh: inhibitors of human tyrosyl-DNA phosphodiesterase TDP1; Q9NUW8; recombinant TDP1, AlphaScreen DNA substrate cleavage; Potency, µM (titrated, usually from 130 µM), actives largely listed as inhibitors; 350,000 compounds, 0.28% hits; note: nearly all actives have a fitted effect of over 40% in size
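Steps: enzyme plus compound, 15 min RT; add biotin/phosphotyrosine-FITC oligonucleotide (15 nM final), react 5 min; add donor/acceptor beads (10 ug/ml final), 10 min; read AlphaScreen. Tdp1 at 1 nM final.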
TDP1 cell noCPT: qHTS for Inhibitors of human tyrosyl-DNA phosphodiesterase 1 (TDP1): qHTS in cells in absence of CPT; DT40 Tdp1-/- hTDP1 cells, no CPT, ATP luminescence, 48 h; Potency, µM (series often up to 46.2 µM), actives largely listed as inhibitors; 420,000 compounds, 15% hits; AID 686978, 2013; note: nearly all actives have a fitted effect of over 55% in size
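Cells were dispensed at 400 per well, compounds added by pin tool, plates incubated ≥48 hr at 37 °C, then CellTiter-Glo added for 30 min at room temperature before luminescence reading. Line: DT40 Tdp1-/- complemented with hTDP1; camptothecin omitted.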
A number is an active result; . = inactive; ? = inconclusive; / = no result; [ ] = remark or other dose. Unless noted, calls come from the whole dose curve; as a rule, active = well fitted curve in the direction sought with a large enough effect; inconclusive = small, poorly fitted or top-dose-only effect, or another doubt; inactive = no such curve, though single readings can be large; an effect the other way counts as inactive or inconclusive.

SMILES	miR-21 reporter	uPA surface inh	DT40 TDP1 CPT	TDP1 inh	TDP1 cell noCPT
CCn1c(=O)c(C(=O)CN(C)Cc2cccc(OC)c2OC)c(N)n(Cc2ccccc2)c1=O	.	.	?	.	15µM
CCOc1ccc(CN(C)CC(=O)c2c(N)n(Cc3ccccc3)c(=O)n(CC)c2=O)cc1OC	.	.	?	.	.
COc1ccc(NC(=O)CSc2nc(-c3ccc(OC)cc3)[nH]c2-c2ccc(F)cc2)cc1	.	/	.	.	.
COc1ccc(-c2[nH]c(-c3ccc(OC)c(OC)c3)nc2SCC(=O)Nc2ccccc2)cc1	.	/	16µM	.	?
COc1ccc(NC(=O)CSc2ncccc2C(=O)O)cc1OC	.	/	.	?	.
COc1ccc(NC(=O)CSc2nc(-c3ccc(OC)c(OC)c3)[nH]c2-c2ccc(C)cc2)cc1	.	/	5.8µM	.	?
COc1ccc(NC(=O)CSc2nc(-c3cccc(C)c3)[nH]c2-c2ccccc2)cc1OC	?	/	9.2µM	.	6.5µM
COc1ccc(-c2nc(SCC(=O)NC3CCCC3)c(-c3ccc(C)cc3)[nH]2)cc1OC	.	/	?	.	?
COc1ccc(-c2nc(SCC(=O)Nc3ccc4c(c3)OCCO4)c(-c3ccc(C)cc3)[nH]2)cc1OC	.	/	?	.[12.3 µM]	18µM
Cc1cc(Nc2ccc(Cl)cc2)n(-c2cccc(Cl)c2)n1	.	.	?	.	?
Cc1ccc2nc(Nc3ccccc3)c(C=O)c(=O)n2c1	.	.	.	.	.
O=C(NC1CCCC1)C(c1ccncc1)N(C(=O)Cc1cccs1)c1ccc(F)cc1 (centres undefined)	.	.	.	.	?
O=C(COC(=O)c1ccccc1NC(=O)c1ccccc1)c1ccc([N+](=O)[O-])cc1	.	.	23µM	.	?
CC1(c2ccc([N+](=O)[O-])cc2)NC(=O)N(CC(=O)Nc2ccc(N3CCCCC3)cc2)C1=O (centres undefined)	/	.	?	/	18µM
CC1(c2ccccc2)NC(=O)N(CC(=O)Nc2ccc([N+](=O)[O-])cc2)C1=O (centres undefined)	.	.	26µM	.	?
CC1(c2ccccc2)NC(=O)N(CC(=O)Nc2ccc(N3CCOCC3)cc2)C1=O (centres undefined)	/	.	?	.	.
O=C(COC(=O)c1ccccc1NC(=O)c1ccccc1)c1cccc([N+](=O)[O-])c1	.	.	.	.	.
O=C(CC(=O)c1ccccc1)Nc1ccc([N+](=O)[O-])cc1	/	.	23µM	/	?
CCOc1cccc(C(=O)N2CCC(c3nc4ccccc4s3)CC2)c1	.	/	.	.	.
Cc1ccc(C(=O)N(CCN(C)C)CC2CCCN(Cc3ccccc3F)C2)cc1C (centres undefined)	.	.	?	/	?
Cn1c(-c2sc3ccccc3c2Cl)n[nH]c1=S	.	.	.	.	.
CC(C)(C)c1ccc(OCc2nnc(SCC(N)=O)n2N)cc1	.	.	.	.	.
Cc1nc2cc(C(F)(F)F)ccc2n1C1CCN(CC(=O)NC(C)(C)C)CC1	?	.	18µM	.	?
COc1ccccc1NC(=O)CN1CCC(n2c(C)nc3cc(F)ccc32)CC1	.	.	?	.	23µM
COc1ccccc1NC(=O)CN1CCC(n2nnc3cc(F)ccc32)CC1	.	.	16µM	.	?
SMILES	miR-21 reporter	uPA surface inh	DT40 TDP1 CPT	TDP1 inh	TDP1 cell noCPT
Cc1ccc2c(c1)nnn2C1CCN(CC(=O)Nc2ccccc2N2CCOCC2)CC1	.	.	18µM	.	23µM
Cc1cccc(CC(=O)NC2CC(=O)N(c3ccc4c(c3)OCCO4)C2)c1 (centres undefined)	.	/	.	.	.
COc1ccc(Cl)cc1NC(=O)CN1CCC(n2nnc3cc(C)ccc32)CC1	.	.	?	.	23µM
Cc1nc2cc(F)ccc2n1C1CCN(C(=O)c2c(F)cccc2F)CC1	.	.	12µM	.	21µM
COc1ccc(N2C(=O)CCSC23C(=O)N(Cc2ccc(F)cc2)c2ccccc23)cc1Cl (centres undefined)	.	/	9.2µM	.	8.2µM
CCOC(=O)C1(Cc2ccccc2)CCCN(Cc2ccncc2)C1 (centres undefined)	.	.	?	.	?
